Results reported in paper PMC7719495 (BioMed Research International, 2020).

System: mice brain capillary endothelial cells (BCECs)
Experiment: AMPB uptake by BCECs, HPLC
Assay type: cell-based
Conditions: 40 g/L albumin + 2.16 μM AMPB; 30, 60, 120 and 180 min, each p < 0.01 vs AMPB group
Description: The mice brain capillary endothelial cells (BCECs, cat. no. BNCC35187) were purchased from Beijing Beina Chuanglian Biotechnology Research Institute (Beijing, China). BCECs were resuscitated in a constant temperature water bath at 37°C and then inoculated in a petri dish. The cells were cultured with the 1640 medium containing 10% FBS in a 5% CO2 cell incubator at 37°C. The culture medium was changed every other day, and the cells were digested with 0.25% trypsin when they converged and proliferated to form a full layer at the bottom of the dish. 1 mL cell suspensions were seeded in 12-well plates at a density of 1 × 10^5 cells/mL per well. The drug was administered after the cells being completely adherent to the wall. 2.16 μM AMBP solution was prepared with the 1640 medium and then was used to prepare POS solution at concentrations of 2.85 μM, 5.71 μM, and 11.42 μM, 5 μM zosuquidar, 5 μM Ko143, 1 mM elacridar, and 40 g/L albumin solution, respectively.
The cells were randomly divided into the following 8 groups: 2.16 μM AMBP, 2.16 μM AMBP+POS (2.85 μM, 5.71 μM, and 11.42 μM), 2.16 μM AMBP+5 μM zosuquidar, 2.16 μM AMBP+5 μM Ko143, 2.16 μM AMBP+1 mM elacridar, and 2.16 μM AMBP+40 g/L albumin. Three wells were set at each time point in each group and cultured at 37°C. Cell samples were collected at 30 min, 60 min, 120 min, and 180 min after drug administration, respectively. […]

## serum albumin: Human albumin (CSL Behring), 40 g/L albumin solution added to BCECs
  effect on AMPB uptake by BCECs: strikingly inhibited
